The values that follow come from publication PMC10544810 (Food & Function, 2023).

Data set [1] can be described thus: LC-MS. The class given is in vivo, human. The note with it: individual volunteers, ESI Fig. S4.
The nature of data set [2]: LC-MS. It counts as in vivo, human. The note with it: given as x : 1; plasma versus CSF concentrations.

For the substance Quercetin-3′-glucuronide, the “concentrations detected in plasma” value in “LC-MS [1]” is given as “below 1 μM”. Further, in the data set “LC-MS [2]”, the “plasma : CSF ratio” value is 23.
